# Melting point values, as collected for the OPERA models

Data: OPERA 2.9 data sets, kmansouri/OPERA on GitHub.

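The OPERA project collected these measurements from public sources as training and test data for property models. A listed value is a point estimate from one report or more. Conditions of the individual experiments are not part of the data. The measured form (salt, isomer or mixture) is not always the one drawn. Unmarked limits or estimates from the upstream databases cannot be ruled out.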

Melting points are in °C.

Listed for COc1ccc2c3c1O[C@H]1[C@@H](O[C@@H]4O[C@H](C(=O)O)[C@@H](O)[C@H](O)[C@H]4O)C=C[C@H]4[C@@H](C2)N(C)CC[C@@]341: MP 249 °C.
Listed for C[C@@H]1CC[C@@]2(NC1)O[C@H]1C[C@H]3[C@@H]4CC=C5C[C@@H](O)CC[C@]5(C)[C@H]4CC[C@]3(C)[C@H]1[C@@H]2C: MP 201 °C.
Listed for CC(C)=CCC1(C(C)(C)C)C(O)=NC(=O)N=C1O: MP 212 °C.
Listed for CC(C)=CC(=O)O[C@@H]1CC(C)(C)C[C@H]2C3=CC[C@@H]4[C@@]5(C)CCC(=O)C(C)(C)[C@@H]5CC[C@@]4(C)[C@]3(C)CC[C@@]12C(=O)O: MP 302 °C.
Listed for CN(C)C(=S)[S-].CN(C)C(=S)[S-].[Pb+2]: MP 310 °C.
Listed for CCc1ccc(C(=O)CCl)cc1: MP 42 °C.
Listed for CC(C)CNC(=O)C(C)Cl (centres undefined): MP 38 °C.
Listed for NC(=O)N1CCC(=O)CC1: MP 138 °C.
Listed for CC(C)NC(=O)C(C)Cl (centres undefined): MP 90 °C.
Listed for Cc1cc(NC(=O)CCl)no1: MP 186 °C.
Listed for COc1ccccc1NC1=NCCCS1: MP 84 °C.
Listed for ClCc1cc2c(cc1Br)OCO2: MP 64 °C.
Listed for Cc1nc2ccccc2c(=O)n1-c1ccc(Br)cc1: MP 177 °C.
Listed for CN(C(=O)C[N+](C)(C)C)C(=O)Oc1cccc2c1OC(C)(C)C2.[Cl-]: MP 200 °C.
Listed for O=c1cc(CCl)occ1O: MP 167 °C.
Listed for CC(Oc1ccc(Cl)cc1)C(=O)O (centres undefined): MP 112 °C.
Listed for C=CCNC(=O)NC(=O)CCl: MP 114 °C.
Listed for O=S(=O)(CCCl)CCCl: MP 56 °C.
Listed for Cc1nc2ccccc2c(=O)n1-c1ccc(C(=O)O)cc1: MP 221 °C.
Listed for O=C(CCl)c1ccc(Br)cc1: MP 120 °C.
Listed for OCc1c(Cl)c(Cl)c(Cl)c(Cl)c1Cl: MP 193 °C.
Listed for N#Cc1ccsc1NC(=O)CCl: MP 165 °C.
Listed for OC(c1ccccc1)(c1ccccc1)C1CCCCN1 (centres undefined): MP 97.5 °C.
Listed for Cc1cc(C=O)c(C)n1Cc1ccco1: MP 88 °C.
Listed for COc1cc(F)c(F)cc1CBr: MP 41.5 °C.
Listed for COc1cc(OC)nc(Oc2cccc(Oc3nc(OC)cc(OC)n3)c2C(=O)O)n1: MP 149 °C.
Listed for C=CC(=O)N(CC)CC: MP -98.35 °C.
Listed for CCCCOCC1CO1 (centres undefined): MP -65.5 °C.
Listed for CCCCCCCCCCCCCCOC(=O)OOC(=O)OCCCCCCCCCCCCCC: MP 46 °C.
Listed for COc1ccc(Cl)cc1CCl: MP 45 °C.
Listed for Clc1ccc(-c2cc(Cl)ccc2Cl)c(Cl)c1: MP 64 °C.
Listed for O=C1N=C(O)C2(CCCCCCC2)C(O)=N1: MP 228 °C.
Listed for CCC(=O)c1ccc(OC)c(OC)c1: MP 62 °C.
Listed for O=C(Cl)OCCOCCOC(=O)Cl: MP 6.6 °C.
Listed for C[N+]1([O-])CCCC1c1cccnc1 (centres undefined): MP -79 °C.
Listed for NNC(=O)CN1CCCC1=O: MP 100 °C.
Listed for Clc1ccc(-c2ccc(Cl)cc2Cl)cc1: MP 57 °C.

Excerpt, the final 4 entries:

O=C(Cl)OCCOCCOC(=O)Cl has MP 6.6 °C.
C[N+]1([O-])CCCC1c1cccnc1 (centres undefined) has MP -79 °C.
NNC(=O)CN1CCCC1=O has MP 100 °C.
Clc1ccc(-c2ccc(Cl)cc2Cl)cc1 has MP 57 °C.